The text below walks through data of patent publication US20240139185A1, “COMPOUNDS THAT PARTICIPATE IN COOPERATIVE BINDING AND USES THEREOF” (Revolution Medicines, Inc., priority 2018, published 2024).

In test [1] the target is BRAF-GTP-KRAS-G12C complex (Homo sapiens, UniProt P01116+P62937, G12C). As to the kind of experiment: KRAS-BRAF complex disruption through competition with CYPA-compound by TR-FRET. The conditions noted are these: read-out: BRAF-GTP-KRAS-G12C Disruption; biochemical BRAF-KRAS G12C-GTP disruption assay EC50, with CYPA. In short, it runs like this:
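His6-KRAS G12C-GTP (1-169, 50 nM) with tagless CypA (1-165, 500 nM) was incubated with compound for 3 h at room temperature in pH 7.3 Hepes/NaCl/MgCl2 buffer containing GST-BRAF RBD. Anti-His Eu (10 nM) and anti-GST APC (50 nM) were then added for 1.5 h, and the 665/615 nm TR-FRET ratio was read. EC50 from 4-parameter fit; for specificity, wild-type KRAS replaced G12C, and CypA was omitted to test presenter dependence.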
A general note: TR-FRET usually uses a lanthanide donor and a delayed reading to cut background.

In a further test the test system is pERK in H358 cells. As to the kind of experiment: pERK inhibition in H358 cells. The conditions noted are these: read-out: Cellular pERK inhibition, 4 hours treatment. In short, it runs like this:
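Human lung cancer H358 cells in RPMI/10% FBS were exposed to compound or DMSO for 4 h. Fixed and permeabilized cells were stained overnight at 4 C with anti-phospho-ERK1/2 (Thr202/Tyr204). Near-infrared imaging read the pERK signal at 800 nm, with DRAQ5 at 700 nm.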

The next test has as its target cyclophilin A (CYPA) (Homo sapiens, UniProt P62937). As to the kind of experiment: CYPA-compound binary complex formation by SPR. The settings on record: read-out: CYPA Binding Affinity. In short, it runs like this: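 CypA-Avi captured on a Biotin CAPture chip (4 μg/ml), reference flow cell subtracted. Compounds injected as 10-point 2-fold dilutions from 50 μM in HBS-P+ pH7.4 with 2% DMSO; 60 s association and 60 s dissociation, solvent-corrected. Affinity obtained by steady-state fitting.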
Background: SPR reads the build-up and loss of mass on a sensor chip optically.

For the molecule `C=CC(=O)N1CC(C(=O)N(C)[C@H](C(=O)N[C@H]2Cc3cc(O)cc(c3)-c3ccc4c(C(C)(C)C#N)cn(c4c3)C[C@H](C)COC(=O)[C@@H]3CCCN(N3)C2=O)C(C)C)C1`, the EC50 in test [1] was 0.5 to 5 µM. Moreover, the IC50 in the test on pERK in H358 cells was more than 10 µM. Moreover, the Kd on cyclophilin A (CYPA) lay within 5 to 15 µM.
Taken in the same sequence, the figures for `CC(C)[C@@H](C(=O)N[C@H]1Cc2cc(O)cc(c2)-c2ccc3c(c2)n(c(=O)n3CC(F)F)C[C@H](C)COC(=O)[C@@H]2CCCN(N2)C1=O)N(C)C(=O)C1CN(C(=O)CCl)C1` were less than 0.5 µM, more than 10 µM and 5 to 15 µM.
Taken in the same sequence, the figures for `CC(C)[C@H](C(=O)N[C@H]1Cc2cc(O)cc(c2)-c2ccc3c(C(C)(C)C#N)cn(c3c2)CC(C)(C)COC(=O)[C@@H]2CCCN(N2)C1=O)N(C)C(=O)C1CN(C(=O)CCl)C1` were 0.5 to 5 µM, more than 10 µM and more than 15 µM.
Take `CC1COC(=O)[C@@H]2CCCN(N2)C(=O)[C@@H](NC(=O)[C@H](C(C)C)N(C)C(=O)C2CN(C(=O)CCl)C2)Cc2cc(O)cc(c2)-c2ccc3cc(C#N)n(c3c2)C1` (stereo partly drawn): in test [1], the EC50 is less than 0.5 µM. Moreover, in the test on pERK in H358 cells, the IC50 lay in the range of 1 to 10 µM. For the same molecule, the Kd at cyclophilin A (CYPA) was less than 5 µM.
For `COC(C)C(C)(C)c1cn2c3cc(ccc13)-c1cc(O)cc(c1)C[C@H](NC(=O)[C@H](C(C)C)N(C)C(=O)C1CN(C(=O)CCl)C1)C(=O)N1CCC[C@H](N1)C(=O)OCC(C)(C)C2` (stereo partly drawn) the same measures were less than 0.5 µM, 1 to 10 µM and more than 15 µM.
As for `CC#CC(=O)N1CC[C@@H]1C(=O)N(C)[C@H](C(=O)N[C@H]1Cc2cc(O)cc(c2)-c2ccc3nc(C)n(c3c2)CC(C)(C)COC(=O)[C@@H]2CCCN(N2)C1=O)C(C)C`, the EC50 in test [1] was more than 5 µM. The IC50 with pERK in H358 cells is more than 10 µM. On cyclophilin A (CYPA), the Kd was more than 15 µM.
Turning to `C=CC(=O)N1CC[C@H](C(=O)N(C)[C@H](C(=O)N[C@H]2Cc3cc(O)cc(c3)-c3ccc4c(c3)N(CC(C)(C)COC(=O)[C@@H]3CCCN(N3)C2=O)CC42COc3ncccc32)C(C)C)C1` (stereo partly drawn), the EC50 in test [1] lay within 0.5 to 5 µM. The IC50 in the test with pERK in H358 cells was 1 to 10 µM. For the same molecule, the Kd at cyclophilin A (CYPA) is 5 to 15 µM.
For `CC#Cc1nn2c3cc(ccc13)-c1cc(O)cc(c1)C[C@H](NC(=O)[C@H](C(C)C)N(C)C(=O)C1CN(C(=O)CCl)C1)C(=O)N1CCC[C@H](N1)C(=O)OC[C@@H](C)C2` the same measures were less than 0.5 µM, 1 to 10 µM and 5 to 15 µM.
Taken in the same sequence, the figures for `CC[C@H](C)[C@@H](C(=O)N[C@H]1Cc2cc(O)cc(c2)-c2ccc3c(c2)c(cn3C(C)(C)C#N)CC(C)(C)COC(=O)[C@@H]2CCCN(N2)C1=O)N(C)C(=O)[C@H]1CCN(C(=O)[C@@H](C)Cl)C1` were 0.5 to 5 µM, less than 1 µM and less than 5 µM.
For `CC(C)[C@@H](C(=O)N[C@H]1Cc2cc(O)cc(c2)-c2ccc3c(C(C)(C)C#N)cn(c3c2)CC(C)(C)COC(=O)[C@@H]2CCCN(N2)C1=O)N1CCC2(CCCN(C(=O)CCl)C2)C1=O` (single isomer, unassigned) the same measures were more than 5 µM, more than 10 µM and less than 5 µM.
`C=CC(=O)N1CC[C@H](C(=O)N(C)[C@H](C(=O)N[C@H]2Cc3cc(O)cc(c3)-c3ccc4c(C(C)(C#N)CC5CCOCC5)cn(c4c3)CC(C)(C)COC(=O)[C@@H]3CCCN(N3)C2=O)C(C)C)C1` (single isomer, unassigned) [368]: the EC50 in test [1] is more than 5 µM. Also, the IC50 with pERK in H358 cells is more than 10 µM. Besides, the Kd at cyclophilin A (CYPA) is more than 15 µM.
As to `C=CC(=O)N1CC[C@H](C(=O)N(C)[C@H](C(=O)N[C@H]2Cc3cc(O)cc(c3)-c3ccc4c(-c5cccc(CN6CCS(=O)(=O)CC6)c5)cn(c4c3)CC(C)(C)COC(=O)[C@@H]3CCCN(N3)C2=O)C(C)C)C1`, the EC50 in test [1] was more than 5 µM. For the same molecule, in the test with pERK in H358 cells, the IC50 was more than 10 µM. For the same molecule, at cyclophilin A (CYPA), the Kd was less than 5 µM.
For `CC(C)[C@@H](C(=O)N[C@H]1Cc2cc(O)cc(c2)-c2ccc3c(C(C)(C)C#N)cn(c3c2)CC(C)(C)COC(=O)[C@@H]2CCCN(N2)C1=O)N1CCCC2(CCN(C(=O)CCl)C2)C1=O` (single isomer, unassigned) the same measures were less than 0.5 µM, less than 1 µM and less than 5 µM.
For `C=CC(=O)N1CC[C@H](C(=O)N(C)[C@H](C(=O)N[C@H]2Cc3cc(O)cc(c3)-c3ccc4c(C(C)(C#N)CC5CCOCC5)cn(c4c3)CC(C)(C)COC(=O)[C@@H]3CCCN(N3)C2=O)C(C)C)C1` (single isomer, unassigned) [362] the same measures were 0.5 to 5 µM, 1 to 10 µM and 5 to 15 µM.
Taken in the same sequence, the figures for `COCC(Cl)C(=O)N1CC(C(=O)N(C)[C@H](C(=O)N[C@H]2Cc3cc(O)cc(c3)-c3ccc4c(C(C)(C)C#N)cn(c4c3)CC(C)(C)COC(=O)[C@@H]3CCCN(N3)C2=O)C(C)C)C1` (stereo partly drawn) were 0.5 to 5 µM, 1 to 10 µM and 5 to 15 µM.
For the molecule `C=CC(=O)N1CC[C@H](C(=O)N(C)[C@H](C(=O)N[C@H]2Cc3cc(O)cc(c3)-c3ccc4c(C(C#N)C5CCOC5)cn(c4c3)CC(C)(C)COC(=O)[C@@H]3CCCN(N3)C2=O)C(C)C)C1` (stereo partly drawn), the EC50 in test [1] fell in the range of 0.5 to 5 µM. Besides, in the test with pERK in H358 cells, the IC50 is more than 10 µM. The Kd on cyclophilin A (CYPA) was in the range of 5 to 15 µM.
Taken in the same sequence, the figures for `C=CC(=O)N1CCCC2(CCN([C@H](C(=O)N[C@H]3Cc4cc(O)cc(c4)-c4ccc5c(C(C)(C)C#N)cn(c5c4)CC(C)(C)COC(=O)[C@@H]4CCCN(N4)C3=O)C(C)C)C2=O)C1` (single isomer, unassigned) [333] were more than 5 µM, more than 10 µM and less than 5 µM.
For `CC(C)[C@@H](C(=O)N[C@H]1Cc2cc(O)cc(c2)-c2ccc3c(c2)c(cn3C(C)(C)C#N)CC(C)(C)COC(=O)[C@@H]2CCCN(N2)C1=O)N(C)C(=O)[C@H]1CCN(C(=O)[C@@H](C)Cl)C1` the same measures were 0.5 to 5 µM, 1 to 10 µM and less than 5 µM.
For `CC(C)[C@@H](C(=O)N[C@H]1Cc2cc(O)cc(c2)-c2ccc3c4c(n(c3c2)C[C@H](C)COC(=O)[C@@H]2CCCN(N2)C1=O)COCC4(C)C#N)N(C)C(=O)C1CN(C(=O)CCl)C1` (single isomer, unassigned) [64] the same measures were less than 0.5 µM, 1 to 10 µM and 5 to 15 µM.
As for `CC#CC(=O)N1CCC2(CC1)CCN([C@H](C(=O)N[C@H]1Cc3cc(O)cc(c3)-c3ccc4c(C(C)(C)C#N)cn(c4c3)CC(C)(C)COC(=O)[C@@H]3CCCN(N3)C1=O)C(C)C)C2=O`, the EC50 in test [1] is more than 5 µM. The IC50 in the test with pERK in H358 cells was more than 10 µM. Besides, the Kd on cyclophilin A (CYPA) was less than 5 µM.
For `C=CC(=O)N1CC[C@H](C(=O)N(C)[C@H](C(=O)N[C@H]2Cc3cc(O)cc(c3)-c3ccc4c(c3)c(c(C#N)n4CC)CC(C)(C)COC(=O)[C@@H]3CCCN(N3)C2=O)C(C)C)C1` the same measures were 0.5 to 5 µM, less than 1 µM and 5 to 15 µM.
For `CC(C)[C@@H](C(=O)N[C@H]1Cc2cc(O)cc(c2)-c2ccc3c4c(C#N)cccc4n(c3c2)CC(C)(C)COC(=O)[C@@H]2CCCN(N2)C1=O)N(C)C(=O)C1CN(C(=O)CCl)C1` the same measures were less than 0.5 µM, 1 to 10 µM and more than 15 µM.
For `C=CC(=O)N[C@@H]1CCN([C@H](C(=O)N[C@H]2Cc3cc(O)cc(c3)-c3ccc4c(C(C)(C)C#N)cn(c4c3)C[C@H](C)COC(=O)[C@@H]3CCCN(N3)C2=O)C(C)C)C1=O` the same measures were more than 5 µM, more than 10 µM and less than 5 µM.
In the case of `COCc1nn2c3cc(ccc13)-c1cc(O)cc(c1)C[C@H](NC(=O)[C@H](C(C)C)N(C)C(=O)C1CN(C(=O)CCl)C1)C(=O)N1CCC[C@H](N1)C(=O)OC[C@@H](C)C2`, the EC50 in test [1] is less than 0.5 µM. Further, in the test on pERK in H358 cells, the IC50 lay within 1 to 10 µM. Moreover, at cyclophilin A (CYPA), the Kd was more than 15 µM.
For the molecule `Cc1nc2ccc3cc2n1CC(C)(C)COC(=O)[C@@H]1CCCN(N1)C(=O)[C@@H](NC(=O)[C@H](C(C)C)N(C)C(=O)CC1CC=CC1=O)Cc1cc(O)cc-3c1` (single isomer, unassigned), the EC50 in test [1] is less than 0.5 µM. In the test on pERK in H358 cells, the IC50 was more than 10 µM. For the same molecule, on cyclophilin A (CYPA), the Kd is more than 15 µM.
Taken in the same sequence, the figures for `CC(C)[C@@H](C(=O)N[C@H]1Cc2cc(O)cc(c2)-c2ccc3c(C4CC4)nn(c3c2)CC(C)(C)COC(=O)[C@@H]2CCCN(N2)C1=O)N(C)C(=O)C1CN(C(=O)CCl)C1` were less than 0.5 µM, less than 1 µM and more than 15 µM.
With `C=CC(=O)N1CCC2(CCCN([C@H](C(=O)N[C@H]3Cc4cc(O)cc(c4)-c4ccc5c(C(C)(C)C#N)cn(c5c4)CC(C)(C)COC(=O)[C@@H]4CCCN(N4)C3=O)C(C)C)C2=O)C1` (single isomer, unassigned) [350], the EC50 in test [1] was in the range of 0.5 to 5 µM. Further, the IC50 in the test on pERK in H358 cells is more than 10 µM. At cyclophilin A (CYPA), the Kd is less than 5 µM.
For `C=CC(=O)N1CC[C@H](C(=O)N(C)[C@H](C(=O)N[C@H]2Cc3cc(O)cc(c3)-c3ccc4c(c3)N(CC(C)(C)COC(=O)[C@@H]3CCCN(N3)C2=O)CC4(C)COC(=O)N(C)C)C(C)C)C1` (stereo partly drawn) the same measures were more than 5 µM, more than 10 µM and more than 15 µM.
